# Most compounds without a hit are left out; they make up all but 13% or so of the library.
# ALDH1A1 block = blocks purified human ALDH1A1 activity; P00352; Purified ALDH1A1, NADH fluorescence, propionaldehyde substrate; Potency, µM (top dose mostly 75.3 µM), for the others: at the top dose activity, negative = inhibition, actives largely listed as inhibitors; 220,000 compounds, 7.3% hits; AID 1030; active = well fitted inhibition curve with a large enough effect, not every such curve was filed as active; inconclusive = small, poorly fitted or top-dose-only effect, or another doubt; inactive = no such curve, though single readings can be large or run the other way;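 note: potency is the fitted concentration of half-maximal effect; plate controls were no enzyme wells and a reference inhibitor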
# Sfp inh = inhibitors of Bacillus subtilis Sfp phosphopantetheinyl transferase; Q9F4F7; Biochemical Sfp PPTase activity, qHTS; Potency, µM, inactives show max response, negative = inhibition, actives largely listed as inhibitors; hit rate 3.5% among 310,000; AID 1490; active means well fitted inhibition curve with a large enough effect; inconclusive means small, poorly fitted or top-dose-only effect, or another doubt; inactive means no such curve, though single readings can be large or run the other way;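 further: the enzyme is Sfp with the accession as filed and its product quenches rhodamine fluorescence; potency means the concentration at half of the fitted maximal effect; 0% = enzyme reaction without inhibitor and -100% = no enzyme wells; top concentration of the series not given in the record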
#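 Reaction rates are the 30-min fluorescence difference (ex 525, em 598 nm) in wells containing 15 nM Sfp, 5 uM rhodamine-CoA and 12.5 uM BHQ-2-YbbR at pH 7.6 with 10 mM MgCl2.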
# G9a inh = inhibitors of human histone lysine methyltransferase G9a; Q96KQ7; G9a H3K9 monomethylation, AlphaScreen, 2 h; Potency, µM (series often up to 102 µM), without a hit: at the highest dose activity, negative = inhibition, hits mostly inhibitors; 350,000 compounds, 8.8% hits; AID 504332; note: potency is the fitted concentration of half-maximal effect; % is set by controls: 0 for no effect and ±100 for the full control effect; nearly all actives have a fitted effect of over 75% in size
#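 Quantitative HTS format: methyltransferase activity on a biotin-tagged H3K9 peptide is measured by AlphaScreen, using a rabbit anti-monomethyl-H3K9 antibody with streptavidin donor and anti-IgG acceptor beads. Final levels are 20 nM enzyme, 500 nM peptide, 20 uM SAM; 2 h RT.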
# miR-21 FLuc = miR-21 reporter, rising signal; Potency, µM (doses to about 38.3 µM), without a hit: at the top dose reporter change, positive = more light; HeLa miR-21 FLuc reporter, luciferase, 48 h; 340,000 tested, under 10 active; active = well fitted rising curve with a large enough effect; inconclusive = small, poorly fitted or top-dose-only effect; inactive = no such curve, though single readings can be large or run the other way;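 further: % of control where 0% means no effect; miR-21 action dims this reporter so a rising signal means less miR-21 action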
#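 Using DMEM plus 10% FBS, HeLa miR-21-FLuc cells are incubated with test compounds (final up to about 40uM) for 48 hours; firefly luciferase signal is then imaged following reagent-mediated lysis.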
# LMNA splice mod = LMNA splicing modulation; HeLa LMNA splicing GFP/RFP minigene ratio, 48 h; Potency, µM (doses to about 46.1 µM), for the others: at the highest dose ratio change, negative = inhibition, hits mostly inhibitors; AID 1487; 200,000 compounds, 0.01% hits; active = well fitted inhibition curve with a large enough effect in the signal ratio, with a control signal flat, not every such curve was filed as active; inconclusive = small, poorly fitted or top-dose-only effect, or effect the other way, or a change in a side signal; the % refers to the signal ratio; note: potency is the fitted concentration of half-maximal effect; % is set by controls: 0 for no effect and ±100 for the full control effect
#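 Read-out is the ratio of GFP to DsRed2 object intensity, acquired by 488 nm laser-scanning cytometry on HeLa lamin A-EGFP minigene reporter cells. Compound incubation 48 hrs at 37 °C in Opti-MEM with 2% FBS; DMSO 0.5% final.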
# KDM4E inh = inhibitors of human JMJD2E histone demethylase; B2RXH2; JMJD2E catalytic domain, FDH-coupled NADH fluorescence (FDH is formaldehyde dehydrogenase); Potency, µM (highest dose often 57.1 µM), inactives show at the highest dose activity change, negative = inhibition, usual class: inhibitors; 230,000 compounds, 1.6% hits; AID 2147; active = well fitted inhibition curve with a large enough effect, not every such curve was filed as active; inconclusive = small, poorly fitted or top-dose-only effect, or another doubt; inactive = no such curve, though single readings can be large or run the other way;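 note: potency is the fitted concentration of half-maximal effect; 0% = wells with enzyme and -100% = buffer wells without enzyme; nearly all actives have a fitted effect of over 50% in size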
# The depositor's hits bear a star; ? = inconclusive; · = not tested or not shown; [ ] = another dose, or the depositor's remark. Unless noted, calls come from the whole dose curve; as a rule, active = well fitted curve in the direction sought with a large enough effect; inconclusive = small, poorly fitted or top-dose-only effect, or another doubt; inactive = no such curve, though single readings can be large; an effect the other way counts as inactive or inconclusive.
no. | ALDH1A1 block | Sfp inh | G9a inh | miR-21 FLuc | LMNA splice mod | KDM4E inh | SMILES
1 | ? | ? | 35µM* | 1% | ? | ? | NC(=O)c1sc2nc(N3CCCCC3)c3c(c2c1N)CCCC3
2 | ? | 45µM* | 8.9µM* | -6% | 3% | ? | CCN(CC)C(=O)c1sc2nc(N3CCOCC3)c3c(c2c1N)CCCC3
3 | ? | 35µM* | 6.3µM* | 3% | -7% | 1% | Nc1c(C(=O)O)sc2nc(-c3ccccc3)c3c(c12)CCCC3
4 | ? | -13% | 45% | -5% | 8% | ? | COC(=O)c1sc2nc(N3CCCCC3)c3c(c2c1N)CCCC3
5 | · | 1% | 2% | -45% | · | ? | CCc1c(-c2ccccc2)nc2sc3c(c2c1N)CCCC3
6 | ? | 13µM* | ? | -25% | ? | ? | Nc1c(C(=O)NCc2ccco2)sc2nc(N3CCOCC3)c3c(c12)CCCC3
7 | 0% | -23% | 1%[59 µM] | -51% | -8% | 1% | c1ccc(Cn2ccnc2-c2ccco2)cc1
8 | 0% | 7.1µM* | ? | 3% | -4% | 4% | c1ccc(-c2nc(-c3ccco3)n3ccccc23)cc1
9 | · | · | -46%[59 µM] | 22% | ? | · | O=c1c(N2CCN(c3cccc(Cl)c3)CC2)csc2ccc(Cl)cc12
10 | · | · | 56µM* | · | · | · | O=C(Nc1ccc(Cl)cc1F)C1CC(=O)N(Cc2ccco2)C1 (stereo not drawn)
11 | · | · | 50µM* | · | · | · | CC(=O)c1sc(NC(=O)C2CC(=O)N(Cc3ccco3)C2)nc1-c1ccccc1 (stereo not drawn)
12 | 15µM* | -10% | ? | -10% | -3%[46 µM] | 5% | O=C(OCc1nnc(-c2ccccc2)o1)C1CC(=O)N(Cc2ccco2)C1 (stereo not drawn)

# Additional entries:
no. | ALDH1A1 block | Sfp inh | G9a inh | miR-21 FLuc | LMNA splice mod | KDM4E inh | SMILES
13 | 40µM* | -5% | -17%[12.7 µM] | -8% | 3% | 1% | CCOC(=O)c1[nH]c(COC(=O)C2CC(=O)N(Cc3ccccc3)C2)c(C(=O)OCC)c1C (stereo not drawn)
14 | -2% | -6% | 13% | 2% | 9%[46 µM] | 7% | COC(=O)C1CC(=O)N(Cc2ccccc2)C1 (stereo not drawn)
15 | 20µM* | -17% | -29%[12.7 µM] | -9% | -2% | -6% | CCOC(=O)c1sc(N)c(C(=O)OCC)c1COC(=O)C1CC(=O)N(Cc2ccco2)C1 (stereo not drawn)
16 | 22µM* | -7% | -27%[59 µM] | -3% | 3% | ? | O=C(NCc1ccco1)C1CC(=O)N(CCc2ccccc2)C1 (stereo not drawn)
17 | ? | -36% | -9%[12.7 µM] | 1% | -12% | -16% | COC(=O)c1sc(N)c(C(=O)OC)c1COC(=O)C1CC(=O)N(Cc2ccco2)C1 (stereo not drawn)
18 | · | -1% | · | -5% | · | · | COc1ccc(C(=O)/C=C/c2ccsc2)cc1CSCC(=O)O
19 | · | 8% | 45µM* | 26% | · | · | CCOC(=O)c1nc(NNC(=O)c2ccc([N+](=O)[O-])cc2)sc1C
20 | 18µM* | 2% | 0% | -1% | 11%[46 µM] | 1% | O=C(Oc1ccccc1-c1csnn1)c1cccs1
21 | 3% | 15% | 12% | 0% | · | -4% | O=C(Oc1ccc(-c2csnn2)cc1)c1cccs1
22 | 22µM* | -8% | · | -5% | 21% | 0% | CCCCn1c(=O)c(C(=O)c2ccccc2)nc2ccccc21
23 | ? | 16% | -2%[0.501 µM] | · | -12% | · | COc1ccc(-n2c(=O)c(C)nc3cnc(OC)nc32)cc1
24 | -15% | 9% | 1%[0.501 µM] | · | -2% | · | COc1ccc(Oc2ncc3nc(-c4cccs4)c(=O)n(CCC#N)c3n2)cc1

# In the list so far, three have an aryl methoxy group.
no. | ALDH1A1 block | Sfp inh | G9a inh | miR-21 FLuc | LMNA splice mod | KDM4E inh | SMILES
18 | · | -1% | · | -5% | · | · | COc1ccc(C(=O)/C=C/c2ccsc2)cc1CSCC(=O)O
23 | ? | 16% | -2%[0.501 µM] | · | -12% | · | COc1ccc(-n2c(=O)c(C)nc3cnc(OC)nc32)cc1
24 | -15% | 9% | 1%[0.501 µM] | · | -2% | · | COc1ccc(Oc2ncc3nc(-c4cccs4)c(=O)n(CCC#N)c3n2)cc1

# From compound 13 as far as 14, copied from above:
no. | ALDH1A1 block | Sfp inh | G9a inh | miR-21 FLuc | LMNA splice mod | KDM4E inh | SMILES
13 | 40µM* | -5% | -17%[12.7 µM] | -8% | 3% | 1% | CCOC(=O)c1[nH]c(COC(=O)C2CC(=O)N(Cc3ccccc3)C2)c(C(=O)OCC)c1C (stereo not drawn)
14 | -2% | -6% | 13% | 2% | 9%[46 µM] | 7% | COC(=O)C1CC(=O)N(Cc2ccccc2)C1 (stereo not drawn)

# Next section.
no. | ALDH1A1 block | Sfp inh | G9a inh | miR-21 FLuc | LMNA splice mod | KDM4E inh | SMILES
25 | ? | -23% | 50µM* | 5% | · | -11% | Cc1[nH][nH]c(=O)c1C(c1cc2c(cc1Br)OCO2)c1c(C)[nH][nH]c1=O
26 | · | 14% | ? | 0% | · | · | Cc1[nH][nH]c(=O)c1C(c1cc(Br)ccc1O)c1c(C)[nH][nH]c1=O
27 | · | · | 5%[2.33 µM] | · | · | · | CC(=O)Nc1ccc(SCCN2CC[C@@H](C)CCC2=O)cc1
28 | -6% | -7% | 45µM* | 0% | -6% | ? | Cn1cccc1Cc1nnc(SCC(=O)Nc2cccc(Cl)c2)n1-c1ccc(F)cc1
29 | ? | ? | 15%[59 µM] | -2% | -11% | -4% | CCOc1ccccc1NC(=O)CSc1nnc(Cc2cccn2C)n1-c1ccc(F)cc1
30 | -2% | 6% | 45µM* | -1% | ? | -10% | COc1ccc(Cl)cc1NC(=O)CSc1nnc(Cc2cccn2C)n1-c1ccc(F)cc1
31 | ? | -12% | ? | -2% | -9% | 2% | Cn1cccc1Cc1nnc(SCC(=O)Nc2cccc(F)c2)n1-c1ccc(F)cc1
32 | -15% | ? | 28µM* | 2% | 0% | -5% | Cc1ccc(NC(=O)CSc2nnc(Cc3cccn3C)n2-c2ccc(F)cc2)c(C)c1
33 | ? | -3% | -1%[59 µM] | -5% | -2% | 3% | Cn1cccc1Cc1nnc(SCC(=O)Nc2ccc(F)cc2F)n1-c1ccc(F)cc1
34 | · | · | 2%[59 µM] | 1% | · | · | O=C1Nc2c(c(=O)[nH]c(=O)n2-c2ccccc2)C1(NS(=O)(=O)c1ccc(Cl)cc1)C(F)(F)F (stereo not drawn)
35 | · | · | 0%[59 µM] | 0% | · | · | COc1cccc(-n2c(=O)c3c(C)c(C)sc3n(CC(=O)NCc3ccc(C)cc3)c2=O)c1
36 | · | · | 12%[59 µM] | -2% | 6%[46 µM] | · | COc1ccc(CCC(=O)NCc2ccc3c(c2)CCN3C(=O)c2ccc(Cl)cc2)cc1

# Additional compounds.
no. | ALDH1A1 block | Sfp inh | G9a inh | miR-21 FLuc | LMNA splice mod | KDM4E inh | SMILES
37 | 3.5µM* | 12% | ? | -8% | -6%[9.22 µM] | ? | N#CCc1c(C#N)c(N)nc(N2CCCC(O)C2)c1C#N (stereo not drawn)
38 | ? | -11% | 50µM* | -17% | -5% | -7% | N#CCc1c(C#N)c(N)nc(N2CCN(c3ccc(F)cc3)CC2)c1C#N
39 | · | 7% | -1% | -20% | · | · | N#CCc1c(C#N)c(N)nc(N2CCN(S(=O)(=O)c3ccccc3F)CC2)c1C#N
40 | ? | 17% | -10% | -18% | 15% | ? | CCCc1cc(=O)n2[nH]c(-c3ccc(OC)cc3)nc2n1
41 | ? | 10% | 45µM* | 0% | -5% | ? | CCCc1cc(=O)n2[nH]c(-c3cc(OC)c(OC)c(OC)c3)nc2n1
42 | · | 25µM* | 22µM* | -3% | · | 13µM* | CCN1CCN(c2c(/C=C3\SC(=S)N(Cc4ccco4)C3=O)c(C)c(C#N)c(=O)n2C)CC1
43 | ? | ? | -5%[0.501 µM] | · | ? | · | COc1cccc(Cn2c(=O)c(CCc3ccccc3)nc3cnc(N4CCN(C)CC4)nc32)c1
44 | 32µM* | 5% | 11µM* | 1% | -6% | 5% | Clc1ccc(C2CC(c3ccco3)n3ncnc3N2)cc1Cl (stereo not drawn)
45 | 7.1µM* | -1% | -19%[12.7 µM] | -7% | 2% | -2% | COc1cccc(C2CC(c3ccccc3)Nc3ncnn32)c1 (stereo not drawn)

# From PubChem BioAssay
